ChEMBL document CHEMBL3352416, “Discovery of carbohybrid-based 2-aminopyrimidine analogues as a new class of rapid-acting antimalarial agents using image-based cytological profiling assay” (J Med Chem, 2014)

What was measured:
Plasmodium falciparum [1] = experiment: Antimalarial activity against tightly synchronized Plasmodium falciparum K1 assessed as parasite stage accumulation index at trophozoites stages at 10 uM treated at 6 hrs post-invasion for continuous duration of 36 hrs by automated image mining based cytological profiling assay; assay type: functional
How it was run: (§1)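 Tightly synchronized cultures exposed to 10 µM final from 6 hpi (early ring), 18 hpi (late ring) or 30 hpi (mid-trophozoite) for a continuous 36 h. Erythrocytes stained with WGA-AlexaFluor 488, parasite nuclei with DAPI, functional mitochondria with Mitotracker Red CMXRos. Stages (early rings, late rings, trophozoites, schizonts) classified by nuclear spot number and size. Viable parasitaemia and stage accumulation index obtained by automated image analysis.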

Plasmodium falciparum [2] = experiment: Antimalarial activity against tightly synchronized Plasmodium falciparum W2 assessed as parasite stage accumulation index at trophozoites stages at 10 uM treated at 18 hrs post-invasion for continuous duration of 36 hrs by automated image mining based cytological profiling assay; assay type: functional; how it was run: as §1

CCN(CC)CCCC(C)Nc1ccnc2cc(Cl)ccc12 (configuration not stated) [CHLOROQUINE]
Activity (Plasmodium falciparum [1]): 1.11 | Activity (Plasmodium falciparum [2]): 1.12
